Results on one compound are retold here after US11046672B2, “Indolinones compounds and their use in the treatment of fibrotic diseases” (RESPIVERT LIMITED, priority 2015, dated 2021).

Amino acid sequences for entries named in this document (tags omitted). Residues count along the entry.
UniProt P09619, 33-1106: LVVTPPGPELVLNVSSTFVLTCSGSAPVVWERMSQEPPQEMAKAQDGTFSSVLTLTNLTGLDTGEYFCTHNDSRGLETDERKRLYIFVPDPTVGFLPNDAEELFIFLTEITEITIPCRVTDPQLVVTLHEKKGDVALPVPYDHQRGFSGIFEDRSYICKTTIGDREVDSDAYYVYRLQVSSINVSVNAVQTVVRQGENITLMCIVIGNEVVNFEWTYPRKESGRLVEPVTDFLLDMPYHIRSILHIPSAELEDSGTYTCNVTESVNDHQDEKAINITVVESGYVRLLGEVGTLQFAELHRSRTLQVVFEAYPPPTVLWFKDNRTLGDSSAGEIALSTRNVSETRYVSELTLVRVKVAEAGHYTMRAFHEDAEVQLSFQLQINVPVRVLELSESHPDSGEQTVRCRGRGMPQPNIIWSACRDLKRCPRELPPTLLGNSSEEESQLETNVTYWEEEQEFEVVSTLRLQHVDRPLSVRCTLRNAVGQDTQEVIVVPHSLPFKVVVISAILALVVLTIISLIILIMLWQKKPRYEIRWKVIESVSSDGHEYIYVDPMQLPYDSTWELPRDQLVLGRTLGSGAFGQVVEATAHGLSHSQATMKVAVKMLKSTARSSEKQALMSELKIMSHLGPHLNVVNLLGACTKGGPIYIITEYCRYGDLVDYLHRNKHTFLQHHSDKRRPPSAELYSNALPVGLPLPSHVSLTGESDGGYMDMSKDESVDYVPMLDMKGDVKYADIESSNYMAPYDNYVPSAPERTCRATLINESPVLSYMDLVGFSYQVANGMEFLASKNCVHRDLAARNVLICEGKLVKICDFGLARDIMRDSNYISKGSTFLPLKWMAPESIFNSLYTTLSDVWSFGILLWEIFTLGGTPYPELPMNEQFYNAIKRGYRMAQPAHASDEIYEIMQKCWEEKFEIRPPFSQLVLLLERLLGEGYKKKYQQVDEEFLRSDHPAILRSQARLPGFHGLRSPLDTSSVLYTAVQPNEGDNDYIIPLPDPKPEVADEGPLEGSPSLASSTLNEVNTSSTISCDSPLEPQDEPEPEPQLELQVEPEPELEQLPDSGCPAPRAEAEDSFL

This experiment deals with PDGFRβ (Homo sapiens (Human), UniProt P09619). The experiment is described as follows: Duration of action (washout) against PDGF-BB induced phosphorylation of PDGFRβ in human fetal lung fibroblast cells. Conditions: MRC-5 cells, rhuPDGF-BB, experiments in Groups 1-4. In kind it is cell-based.

As to `CNC(=O)CN1CCN(CCON(C)C(=O)c2ccc(N/C(=C3\C(=O)Nc4cc(C(=O)OC)c(C)cc43)c3ccccc3)cc2)CC1` [Example 9, (Z)-Methyl 5-methyl-3-(((4-(methyl(2-(4-(2-(methylamino)-2-oxoethyl)piperazin-1-yl)ethoxy)carbamoyl)phenyl)amino)(phenyl)methylene)-2-oxoindoline-6-carboxylate], the “% phos: percentage phosphorylation after wash-out relative to maximal phosphorylation (100%)” value was determined as 56.8%.
